Measurements reported in patent US20180258163A1 (Chugai, published 2018).

T1: soluble human FcγRIIb (human, UniProt P31994 43-217, limits assumed)
T1 construct: soluble His-tagged form; also called hFcγRIIb
T1 sequence (looked up): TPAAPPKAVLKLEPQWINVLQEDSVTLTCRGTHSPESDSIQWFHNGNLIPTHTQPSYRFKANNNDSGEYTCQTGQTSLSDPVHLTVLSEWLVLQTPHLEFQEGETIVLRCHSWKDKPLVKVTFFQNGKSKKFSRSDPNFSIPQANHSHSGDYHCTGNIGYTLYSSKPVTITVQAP

B1: CFP0020H0261-001-G1dP1/CFP0018H0012-002-G1dN1/CFP0020L233-k0 (bispecific antibody, human IgG1, kappa)
heavy 1: not shown
heavy 2: not shown
light: DIQMTQSPSSLSASVGDRVTITCRASQSIHNDLAWYQQKPGKAPKLLIYEASELQSGVPSRFSGSGSGTDFTLTISSLQPEDFATYYCQHYSSYPYTFGQGTKVEIKRTVAAPSVFIFPPSDEQLKSGTASVVCLLNNFYPREAKVQWKVDNALQSGNSQESVTEQDSKDSTYSLSSTLTLSKADYEKHKVYACEVTHQGLSSPVTKSFNRGEC
B2: CFP0020H0261-G1dP1/CFP0018H0012-G1dN1/CFP0020L233-004-k0 (bispecific antibody, human IgG1, kappa)
heavy 1: not shown
heavy 2: not shown
light: DIQMTQSPSSLSASVGDRVTITCRASQSIHNDLAWYQQKPGKAPKLLIYEAKELQKGVPSRFSGSGSGTDFTLTISSLQPEDFATYYCQHYSSYPYTFGQGTKVEIKRTVAAPSVFIFPPSDEQLKSGTASVVCLLNNFYPREAKVQWKVDNALQSGNSQESVTEQDSKDSTYSLSSTLTLSKADYEKHKVYACEVTHQGLSSPVTKSFNRGEC
B3: CFP0020H0261-G1dP1/CFP0018H0012-G1dN1/CFP0020L233-003-k0 (bispecific antibody, human IgG1, kappa)
heavy 1: not shown
heavy 2: not shown
light: DIQMTQSPSSLSASVGDRVTITCRRRQSIHNDLAWYQQKPGKAPKLLIYEASELQSGVPSRFSGSGSGTDFTLTISSLQPEDFATYYCQHYSSYPYTFGQGTKVEIKRTVAAPSVFIFPPSDEQLKSGTASVVCLLNNFYPREAKVQWKVDNALQSGNSQESVTEQDSKDSTYSLSSTLTLSKADYEKHKVYACEVTHQGLSSPVTKSFNRGEC
B4: CFP0020H0261-036-G1dP1/CFP0018H0012-G1dN1/CFP0020L233-k0 (bispecific antibody, human IgG1, kappa, name in Kabat numbering)
heavy 1: not shown
heavy 2: not shown
light: DIQMTQSPSSLSASVGDRVTITCRASQSIHNDLAWYQQKPGKAPKLLIYEASELQSGVPSRFSGSGSGTDFTLTISSLQPEDFATYYCQHYSSYPYTFGQGTKVEIKRTVAAPSVFIFPPSDEQLKSGTASVVCLLNNFYPREAKVQWKVDNALQSGNSQESVTEQDSKDSTYSLSSTLTLSKADYEKHKVYACEVTHQGLSSPVTKSFNRGEC
B5: CFP0020H0261-008-G1dP1/CFP0018H0012-008-G1dN1/CFP0020L233-k0 (bispecific antibody, human IgG1, kappa, name in Kabat numbering)
heavy 1: not shown
heavy 2: not shown
light: DIQMTQSPSSLSASVGDRVTITCRASQSIHNDLAWYQQKPGKAPKLLIYEASELQSGVPSRFSGSGSGTDFTLTISSLQPEDFATYYCQHYSSYPYTFGQGTKVEIKRTVAAPSVFIFPPSDEQLKSGTASVVCLLNNFYPREAKVQWKVDNALQSGNSQESVTEQDSKDSTYSLSSTLTLSKADYEKHKVYACEVTHQGLSSPVTKSFNRGEC
B6: CFP0020H0261-002-G1dP1/CFP0018H0012-002-G1dN1/CFP0020L233-k0 (bispecific antibody, human IgG1, kappa, name in Kabat numbering)
heavy 1: not shown
heavy 2: not shown
light: DIQMTQSPSSLSASVGDRVTITCRASQSIHNDLAWYQQKPGKAPKLLIYEASELQSGVPSRFSGSGSGTDFTLTISSLQPEDFATYYCQHYSSYPYTFGQGTKVEIKRTVAAPSVFIFPPSDEQLKSGTASVVCLLNNFYPREAKVQWKVDNALQSGNSQESVTEQDSKDSTYSLSSTLTLSKADYEKHKVYACEVTHQGLSSPVTKSFNRGEC
B7: CFP0020H0261-G1dP1/CFP0018H0012-G1dN1/CFP0020L233-006-k0 (bispecific antibody, human IgG1, kappa)
heavy 1: not shown
heavy 2: not shown
light: DIQMTQSPSSLSASVGDRVTITCRASQSIHNDLAWYQQKPGKAPKLLIYEASELQSGVPSRFSGSGSGTDFTLTIRSLKPEDFATYYCQHYSSYPYTFGQGTKVEIKRTVAAPSVFIFPPSDEQLKSGTASVVCLLNNFYPREAKVQWKVDNALQSGNSQESVTEQDSKDSTYSLSSTLTLSKADYEKHKVYACEVTHQGLSSPVTKSFNRGEC
B8: CFP0020H0261-G1dP1/CFP0018H0012-G1dN1/CFP0020L233-002-k0 (bispecific antibody, human IgG1, kappa)
heavy 1: not shown
heavy 2: not shown
light: DIQMTQSPSSLSASVGDRVTITCRASRSIHNDLAWYQQKPGKAPKLLIYEASELQSGVPSRFSGSGSGTDFTLTISSLQPEDFATYYCQHYSSYPYTFGQGTKVEIKRTVAAPSVFIFPPSDEQLKSGTASVVCLLNNFYPREAKVQWKVDNALQSGNSQESVTEQDSKDSTYSLSSTLTLSKADYEKHKVYACEVTHQGLSSPVTKSFNRGEC
B9: CFP0020H0261-037-G1dP1/CFP0018H0012-037-G1dN1/CFP0020L233-k0 (bispecific antibody, human IgG1, kappa, name in Kabat numbering)
heavy 1: not shown
heavy 2: not shown
light: DIQMTQSPSSLSASVGDRVTITCRASQSIHNDLAWYQQKPGKAPKLLIYEASELQSGVPSRFSGSGSGTDFTLTISSLQPEDFATYYCQHYSSYPYTFGQGTKVEIKRTVAAPSVFIFPPSDEQLKSGTASVVCLLNNFYPREAKVQWKVDNALQSGNSQESVTEQDSKDSTYSLSSTLTLSKADYEKHKVYACEVTHQGLSSPVTKSFNRGEC
B10: CFP0020H0261-G1dP1/CFP0018H0012-G1dN1/CFP0020L233-008-k0 (bispecific antibody, human IgG1, kappa)
heavy 1: not shown
heavy 2: not shown
light: DIQMTQSPSSLSASVGDRVTITCRKKQSIHNDLAWYQQKPGKAPKLLIYEASELQSGVPSRFSGSGSGTDFTLTISSLQPEDFATYYCQHYSSYPYTFGQGTKVEIKRTVAAPSVFIFPPSDEQLKSGTASVVCLLNNFYPREAKVQWKVDNALQSGNSQESVTEQDSKDSTYSLSSTLTLSKADYEKHKVYACEVTHQGLSSPVTKSFNRGEC
B11: CFP0020H0261-013-G1dP1/CFP0018H0012-013-G1dN1/CFP0020L233-k0 (bispecific antibody, human IgG1, kappa, name in Kabat numbering)
heavy 1: not shown
heavy 2: not shown
light: DIQMTQSPSSLSASVGDRVTITCRASQSIHNDLAWYQQKPGKAPKLLIYEASELQSGVPSRFSGSGSGTDFTLTISSLQPEDFATYYCQHYSSYPYTFGQGTKVEIKRTVAAPSVFIFPPSDEQLKSGTASVVCLLNNFYPREAKVQWKVDNALQSGNSQESVTEQDSKDSTYSLSSTLTLSKADYEKHKVYACEVTHQGLSSPVTKSFNRGEC
B12: CFP0020H0261-G1dP1/CFP0018H0012-014-G1dN1/CFP0020L233-k0 (bispecific antibody, human IgG1, kappa, name in Kabat numbering)
heavy 1: not shown
heavy 2: not shown
light: DIQMTQSPSSLSASVGDRVTITCRASQSIHNDLAWYQQKPGKAPKLLIYEASELQSGVPSRFSGSGSGTDFTLTISSLQPEDFATYYCQHYSSYPYTFGQGTKVEIKRTVAAPSVFIFPPSDEQLKSGTASVVCLLNNFYPREAKVQWKVDNALQSGNSQESVTEQDSKDSTYSLSSTLTLSKADYEKHKVYACEVTHQGLSSPVTKSFNRGEC
B13: CFP0020H0261-005-G1dP1/CFP0018H0012-005-G1dN1/CFP0020L233-k0 (bispecific antibody, human IgG1, kappa, name in Kabat numbering)
heavy 1: not shown
heavy 2: not shown
light: DIQMTQSPSSLSASVGDRVTITCRASQSIHNDLAWYQQKPGKAPKLLIYEASELQSGVPSRFSGSGSGTDFTLTISSLQPEDFATYYCQHYSSYPYTFGQGTKVEIKRTVAAPSVFIFPPSDEQLKSGTASVVCLLNNFYPREAKVQWKVDNALQSGNSQESVTEQDSKDSTYSLSSTLTLSKADYEKHKVYACEVTHQGLSSPVTKSFNRGEC
B14: CFP0020H0261-018-G1dP1/CFP0018H0012-018-G1dN1/CFP0020L233-k0 (bispecific antibody, human IgG1, kappa, name in Kabat numbering)
heavy 1: not shown
heavy 2: not shown
light: DIQMTQSPSSLSASVGDRVTITCRASQSIHNDLAWYQQKPGKAPKLLIYEASELQSGVPSRFSGSGSGTDFTLTISSLQPEDFATYYCQHYSSYPYTFGQGTKVEIKRTVAAPSVFIFPPSDEQLKSGTASVVCLLNNFYPREAKVQWKVDNALQSGNSQESVTEQDSKDSTYSLSSTLTLSKADYEKHKVYACEVTHQGLSSPVTKSFNRGEC
B15: CFP0020H0261-023-G1dP1/CFP0018H0012-023-G1dN1/CFP0020L233-k0 (bispecific antibody, human IgG1, kappa, name in Kabat numbering)
heavy 1: not shown
heavy 2: not shown
light: DIQMTQSPSSLSASVGDRVTITCRASQSIHNDLAWYQQKPGKAPKLLIYEASELQSGVPSRFSGSGSGTDFTLTISSLQPEDFATYYCQHYSSYPYTFGQGTKVEIKRTVAAPSVFIFPPSDEQLKSGTASVVCLLNNFYPREAKVQWKVDNALQSGNSQESVTEQDSKDSTYSLSSTLTLSKADYEKHKVYACEVTHQGLSSPVTKSFNRGEC
B16: CFP0020H0261-G1dP1/CFP0018H0012-G1dN1/CFP0020L233-005-k0 (bispecific antibody, human IgG1, kappa)
heavy 1: not shown
heavy 2: not shown
light: DIQMTQSPSSLSASVGDRVTITCRASQSIHNDLAWYQQKPGKAPKLLIYEASELQSGVPSRFSGSGSGTDFTLKISRLQPEDFATYYCQHYSSYPYTFGQGTKVEIKRTVAAPSVFIFPPSDEQLKSGTASVVCLLNNFYPREAKVQWKVDNALQSGNSQESVTEQDSKDSTYSLSSTLTLSKADYEKHKVYACEVTHQGLSSPVTKSFNRGEC
B17: CFP0020H0261-G1dP1/CFP0018H0012-016-G1dN1/CFP0020L233-k0 (bispecific antibody, human IgG1, kappa, name in Kabat numbering)
heavy 1: not shown
heavy 2: not shown
light: DIQMTQSPSSLSASVGDRVTITCRASQSIHNDLAWYQQKPGKAPKLLIYEASELQSGVPSRFSGSGSGTDFTLTISSLQPEDFATYYCQHYSSYPYTFGQGTKVEIKRTVAAPSVFIFPPSDEQLKSGTASVVCLLNNFYPREAKVQWKVDNALQSGNSQESVTEQDSKDSTYSLSSTLTLSKADYEKHKVYACEVTHQGLSSPVTKSFNRGEC
B18: CFP0020H0261-G1dP1/CFP0018H0012-G1dN1/CFP0020L233-007-k0 (bispecific antibody, human IgG1, kappa)
heavy 1: not shown
heavy 2: not shown
light: DIQMTQSPSSLSASVGDRVTITCRASKSIHNDLAWYQQKPGKAPKLLIYEASELQSGVPSRFSGSGSGTDFTLTISSLQPEDFATYYCQHYSSYPYTFGQGTKVEIKRTVAAPSVFIFPPSDEQLKSGTASVVCLLNNFYPREAKVQWKVDNALQSGNSQESVTEQDSKDSTYSLSSTLTLSKADYEKHKVYACEVTHQGLSSPVTKSFNRGEC
B19: CFP0020H0261-G1dP1/CFP0018H0012-024-G1dN1/CFP0020L233-k0 (bispecific antibody, human IgG1, kappa, name in Kabat numbering)
heavy 1: not shown
heavy 2: not shown
light: DIQMTQSPSSLSASVGDRVTITCRASQSIHNDLAWYQQKPGKAPKLLIYEASELQSGVPSRFSGSGSGTDFTLTISSLQPEDFATYYCQHYSSYPYTFGQGTKVEIKRTVAAPSVFIFPPSDEQLKSGTASVVCLLNNFYPREAKVQWKVDNALQSGNSQESVTEQDSKDSTYSLSSTLTLSKADYEKHKVYACEVTHQGLSSPVTKSFNRGEC
B20: CFP0020H0261-G1dP1/CFP0018H0012-G1dN1/CFP0020L233-001-k0 (bispecific antibody, human IgG1, kappa)
heavy 1: not shown
heavy 2: not shown
light: DIQMTQSPSSLSASVKDRVTITCRASQSIHNDLAWYQQKPGKAPKLLIYEASELQSGVPSRFSGSGSGTDFTLTISSLQPEDFATYYCQHYSSYPYTFGQGTKVEIKRTVAAPSVFIFPPSDEQLKSGTASVVCLLNNFYPREAKVQWKVDNALQSGNSQESVTEQDSKDSTYSLSSTLTLSKADYEKHKVYACEVTHQGLSSPVTKSFNRGEC

Molecular target: T1, soluble human FcγRIIb
Experiment: SPR, Ab-antigen (C5) complex over captured hFcγRIIb, pH 7.4, 25C
Procedure: An appropriate amount of an anti-His antibody was fixed onto Sensor chip CM5 (GE Healthcare) by the amine coupling method using a His capture kit (GE Healthcare) to capture hFcγRIIb. […] 20 mM N-(2-Acetamido)-2-aminoethanesulfonic acid, 150 mM NaCl, 1.2 mM CaCl₂, and 0.05% (w/v) Tween 20 at pH 7.4 was used as the running buffer, and the respective buffer was also used to dilute the soluble hFcγRIIb. To regenerate the sensor chip, 10 mM glycine-HCl at pH 1.5 was used. All measurements were carried out at 25° C. […] To calculate the parameters, the BIACORE T100 Evaluation Software (GE Healthcare) was used.

Binder | BIACORE fold (relative binding, original Ab2=1.00) [fold]
B1 | 0.91
B2 | 0.75
B3 | 0.32
B4 | 1.05
B5 | 0.2
B6 | 1.09
B7 | 1.89
B8 | 0.92
B9 | 0.34
B10 | 0.29
B11 | 1.52
B12 | 0.8
B13 | 0.96
B14 | 0.96
B15 | 0.52
B16 | 1.83
B17 | 1.08
B18 | 0.95
B19 | 0.72
B20 | 1.59
